The values below come from PubChem BioAssay (Tox21).

Chains of the proteins cited; added tags and fusions are not shown. Lines headed by an entry give the natural chain unless they say otherwise; changes in a name come on top.
UniProt P03372, whole entry, looked up: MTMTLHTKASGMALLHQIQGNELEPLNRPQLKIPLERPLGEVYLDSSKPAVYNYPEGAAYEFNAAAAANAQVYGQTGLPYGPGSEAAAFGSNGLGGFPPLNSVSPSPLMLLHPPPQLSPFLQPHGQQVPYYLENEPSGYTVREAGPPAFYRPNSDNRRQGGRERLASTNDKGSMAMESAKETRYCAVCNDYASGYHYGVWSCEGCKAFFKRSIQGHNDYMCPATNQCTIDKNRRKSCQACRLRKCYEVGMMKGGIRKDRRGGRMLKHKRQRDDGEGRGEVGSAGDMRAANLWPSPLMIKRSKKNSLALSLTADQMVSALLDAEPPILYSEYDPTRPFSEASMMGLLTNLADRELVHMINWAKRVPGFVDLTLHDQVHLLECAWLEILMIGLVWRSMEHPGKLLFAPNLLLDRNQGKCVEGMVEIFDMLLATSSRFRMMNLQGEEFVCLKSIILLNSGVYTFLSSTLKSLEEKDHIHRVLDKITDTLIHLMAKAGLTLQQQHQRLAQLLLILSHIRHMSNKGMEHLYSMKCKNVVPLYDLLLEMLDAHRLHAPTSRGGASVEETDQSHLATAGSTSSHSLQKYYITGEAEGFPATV
UniProt Q92731, whole entry, looked up: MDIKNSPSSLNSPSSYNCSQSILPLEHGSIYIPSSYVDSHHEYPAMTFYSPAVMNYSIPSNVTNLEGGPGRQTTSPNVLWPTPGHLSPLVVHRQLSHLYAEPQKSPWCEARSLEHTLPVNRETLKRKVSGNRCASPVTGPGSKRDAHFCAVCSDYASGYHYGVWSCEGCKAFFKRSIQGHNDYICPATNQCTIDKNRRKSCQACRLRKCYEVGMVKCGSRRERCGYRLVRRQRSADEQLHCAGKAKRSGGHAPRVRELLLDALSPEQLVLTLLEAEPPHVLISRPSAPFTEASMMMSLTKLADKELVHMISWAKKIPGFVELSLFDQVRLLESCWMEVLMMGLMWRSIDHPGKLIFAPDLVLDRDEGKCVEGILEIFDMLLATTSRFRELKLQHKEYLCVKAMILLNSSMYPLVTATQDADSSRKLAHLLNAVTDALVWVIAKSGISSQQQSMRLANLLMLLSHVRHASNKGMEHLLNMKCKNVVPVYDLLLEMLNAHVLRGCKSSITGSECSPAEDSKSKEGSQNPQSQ
UniProt P16473, whole entry, looked up: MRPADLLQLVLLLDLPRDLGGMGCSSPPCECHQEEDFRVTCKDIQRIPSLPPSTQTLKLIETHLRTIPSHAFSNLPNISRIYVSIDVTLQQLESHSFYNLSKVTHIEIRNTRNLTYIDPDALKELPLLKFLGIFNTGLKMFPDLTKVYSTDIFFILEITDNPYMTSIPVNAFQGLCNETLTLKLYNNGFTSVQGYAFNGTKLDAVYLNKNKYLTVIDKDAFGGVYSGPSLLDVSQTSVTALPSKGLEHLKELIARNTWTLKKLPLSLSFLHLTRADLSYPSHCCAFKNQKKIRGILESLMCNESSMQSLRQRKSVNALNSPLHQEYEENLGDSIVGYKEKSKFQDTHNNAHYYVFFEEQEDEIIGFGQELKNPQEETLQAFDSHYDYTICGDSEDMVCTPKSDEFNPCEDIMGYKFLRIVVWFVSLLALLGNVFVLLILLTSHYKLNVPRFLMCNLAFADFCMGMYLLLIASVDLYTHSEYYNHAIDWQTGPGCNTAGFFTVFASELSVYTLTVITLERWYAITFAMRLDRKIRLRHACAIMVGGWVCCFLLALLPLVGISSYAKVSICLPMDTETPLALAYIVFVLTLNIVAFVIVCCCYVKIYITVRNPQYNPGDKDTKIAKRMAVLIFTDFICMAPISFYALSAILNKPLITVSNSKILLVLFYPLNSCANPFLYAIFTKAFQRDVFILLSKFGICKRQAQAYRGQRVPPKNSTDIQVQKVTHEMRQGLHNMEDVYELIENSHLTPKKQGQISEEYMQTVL
UniProt P10275: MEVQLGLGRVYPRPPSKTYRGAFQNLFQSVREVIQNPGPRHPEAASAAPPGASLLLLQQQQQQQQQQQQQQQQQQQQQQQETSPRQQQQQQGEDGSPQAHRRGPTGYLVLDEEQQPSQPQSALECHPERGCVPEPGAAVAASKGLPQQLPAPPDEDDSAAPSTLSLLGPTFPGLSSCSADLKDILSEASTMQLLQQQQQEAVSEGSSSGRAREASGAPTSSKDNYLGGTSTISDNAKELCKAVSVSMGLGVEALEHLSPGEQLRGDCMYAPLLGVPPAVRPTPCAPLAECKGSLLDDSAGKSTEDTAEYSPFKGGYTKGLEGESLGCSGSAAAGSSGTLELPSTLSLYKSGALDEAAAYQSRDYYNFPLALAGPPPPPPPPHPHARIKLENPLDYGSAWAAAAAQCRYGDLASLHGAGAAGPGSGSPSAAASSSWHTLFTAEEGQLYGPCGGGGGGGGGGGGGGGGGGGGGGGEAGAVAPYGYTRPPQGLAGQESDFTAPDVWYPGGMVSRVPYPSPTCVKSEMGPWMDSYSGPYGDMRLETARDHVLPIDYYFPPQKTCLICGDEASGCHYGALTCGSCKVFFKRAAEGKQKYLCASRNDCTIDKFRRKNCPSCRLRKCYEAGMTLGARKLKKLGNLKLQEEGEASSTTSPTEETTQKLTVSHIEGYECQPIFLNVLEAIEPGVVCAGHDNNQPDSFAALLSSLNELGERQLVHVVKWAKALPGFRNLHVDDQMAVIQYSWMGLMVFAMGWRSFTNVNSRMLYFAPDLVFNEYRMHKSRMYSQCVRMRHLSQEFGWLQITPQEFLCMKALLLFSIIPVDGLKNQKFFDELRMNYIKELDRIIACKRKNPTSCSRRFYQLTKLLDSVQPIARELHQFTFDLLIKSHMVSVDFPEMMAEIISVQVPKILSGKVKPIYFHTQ

The entries are a selection whose mix differs from that of the whole data set. Inconclusive results are not listed. Active and inactive are the calls of the source. Unless noted, the call rests on the fitted dose curve; in most records, active means well fitted curve in the direction sought with a large enough effect in the repeat runs; inconclusive means weak or mixed curves; inactive means no such curve, though single readings can be large; an effect the other way counts as inactive or inconclusive.

Assay [1] in a line: A CellTox Green Cytotoxicity Assay to monitor cytotoxicity in HepG2 cells - 32 hour (AID 1224883). Further: nearly all actives have a fitted effect of over 50% in size. Put shortly:
(§1)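 Cytotoxicity was tracked as dead-cell DNA fluorescence in HepG2 cells treated with test compounds at 37 C; each time-point value comes from one kinetic series spanning 0, 8, 16, 24, 32 and 40 h.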

Assay [2] can be described thus: A CellTox Green Cytotoxicity Assay to monitor cytotoxicity in HEK293 cells - 8 hour (AID 1224884). Further: nearly all actives have a fitted effect of over 35% in size. Put shortly:
(§2)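 Real-time, in one plate: 600 HEK293 cells/well with dead-cell DNA dye, pinned compound after 5 h, 37 C incubation over 40 h; viable cells give no appreciable fluorescence.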

Assay [3] in a line: qHTS RealTime-Glo MT Cell Viability Assay in HepG2 cells - 16 hour (AID 1224885). Further: nearly all actives have a fitted effect of over 50% in size. The method in brief: (§3)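 Compound treatment began 5 h after plating HepG2 cells (600/well) with NanoLuc luciferase and prosubstrate. Plates stayed at 37 C for 40 h; luminescence was captured at six time points, 0 h through 40 h.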
In general terms: qHTS replaces the single test concentration by a dilution series.

A short description of assay [4]: qHTS RealTime-Glo MT Cell Viability Assay in HEK293 cells - 24 hour (AID 1224886). Further: top concentration of the series differs between compounds; nearly all actives have a fitted effect of over 50% in size. The method in brief: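 Quantitative high-throughput screen of the Tox21 10K library in HEK293: cells and RealTime-Glo reagents plated together, compound added at 5 h, luminescence monitored through 40 h at 37 C.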
Assay [5] is described as follows: qHTS RealTime-Glo MT Cell Viability Assay in HEK293 cells - 8 hour (AID 1224887). Further: nearly all actives have a fitted effect of over 50% in size. Further: potency means the concentration at half of the fitted maximal effect. On activity change, negative = cytotoxicity: top concentration of the series differs between compounds. The method in brief: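 Kinetic, non-lysing viability readout. Seed HEK293 (600/well) with reagent, incubate 5 h at 37 C/5% CO2, pin 23 nL compound in DMSO, incubate at 37 C, read luminescence at 0, 8, 16, 24, 32, 40 h.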
The nature of assay [6]: A CellTox Green Cytotoxicity Assay to monitor cytotoxicity in HEK293 cells - 16 hour (AID 1224888). Further: nearly all actives have a fitted effect of over 35% in size. Put shortly: as §2
Assay [7] can be described thus: qHTS RealTime-Glo MT Cell Viability Assay in HepG2 cells - 0 hour (AID 1224889). Further: nearly all actives have a fitted effect of over 50% in size. Particulars: RealTime-Glo luminescence; at 76.8 µM (top of the series) unless noted. The method in brief:
as §3

A short description of assay [8]: A CellTox Green Cytotoxicity Assay to monitor cytotoxicity in HepG2 cells - 8 hour (AID 1224890). Further: nearly all actives have a fitted effect of over 45% in size. Further: potency means the concentration at half of the fitted maximal effect. The method in brief:
as §1

Assay [9] deals with Estrogen receptor (Homo sapiens) (UniProt P03372). The experiment in a line: qHTS assay to identify small molecule antagonists of the estrogen receptor alpha (ER-alpha) signaling pathway using the BG1 cell line in the presence of 0.1 nM 17-beta-estradiol (AID 1259244). Further: nearly all actives have a fitted effect of over 50% in size. Particulars: VM7Luc4E2 (BG1) ERE-luciferase, antagonist mode, 0.1 nM E2, 22 h; at 92.4 µM (top of the series) unless noted.

Assay [10] can be described thus: qHTS assay to identify small molecule HDAC inhibitors (AID 1259364).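 Further: wild-type HCT-116 cells with endogenous class I/II HDAC activity; top concentration of the series differs between compounds; nearly all actives have a fitted effect of over 45% in size.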 Particulars: HCT-116 HDAC-Glo I/II luminescence, 2 h; at 92.4 µM (top of the series) unless noted. Put shortly:
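HCT-116 wt cells, 1,500/well, overnight attach. Compounds (DMSO) 2 h, 37 °C. HDAC-Glo I/II, 30 min RT. Luminescence.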

Assay [11] is described as follows: qHTS assay to identify small molecule agonists of the sonic hedgehog signaling (Shh) pathway - cell viability counter screen (AID 1259366). Further: nearly all actives have a fitted effect of over 50% in size. Further: potency means the concentration at half of the fitted maximal effect. The method in brief:
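NIH/3T3-derived Gli1-Luc reporter cells, 2,000 per well, received compound after 4 h and were treated about 23 h at 37C. Viability measured in the same wells by CellTiter-Fluor fluorescence after 1 h.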

Assay [12] is described as follows: qHTS assay to identify small molecule agonists of the sonic hedgehog signaling (Shh) pathway (AID 1259368; calls by dose curve;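 further: NIH/3T3-derived 3T3Gli1-Luc cells carrying a stable Gli1-driven firefly luciferase reporter; nearly all actives have a fitted effect of over 15% in size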). Particulars: NIH/3T3 Gli1-Luc reporter, luciferase, 24 h, hits give high values; at 92.4 µM (top of the series) unless noted. Put shortly:
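Following a 24 hr incubation with DMSO-dissolved compounds at 37 C, 5% CO2, Gli1-Luc NIH/3T3-derived cells received luciferase reagent for 30 min at room temperature prior to luminescence measurement.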

In assay [13] the target is Estrogen receptor beta (Homo sapiens) (UniProt Q92731). The experiment in a line: qHTS assay to identify small molecule agonists of the estrogen receptor beta (ER-beta) signaling pathway (AID 1259377; active means well fitted activation curve with a large enough effect in the signal ratio in the repeat runs, not every such curve was filed as active; the % refers to the signal ratio). Particulars: ER-beta-UAS-bla HEK293T, beta-lactamase FRET ratio, 16 h; at 92.4 µM (top of the series) unless noted.
For assay [14] the target is unchanged. The experiment in a line: qHTS assay to identify small molecule antagonists of the estrogen receptor beta (ER-beta) signaling pathway (AID 1259378; active means well fitted inhibition curve with a large enough effect in the signal ratio in the repeat runs, not every such curve was filed as active; the % refers to the signal ratio). The following applies: ER-beta-UAS-bla HEK293T, beta-lactamase FRET ratio, 16 h. The method in brief:
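ER-beta-UAS-bla HEK293T cells in 2% charcoal-stripped FBS medium treated with compound plus 1nM final 17-beta-estradiol for 16 hr at 37C. Beta-lactamase reporter read by FRET substrate fluorescence after 2 hours at room temperature.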

Assay [15] in a line: qHTS assay to identify small molecule agonists of the androgen receptor (AR) signaling pathway in the presence of an antagonist - cell viability counter screen (AID 1259379).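 Further: MDA-kb2 human breast cancer cells carrying an MMTV luciferase reporter; nearly all actives have a fitted effect of over 25% in size.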 The method in brief:
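Each compound was tested at 15 concentrations on MDA-kb2 cells in the presence of 3.0uM nilutamide. Viability was measured by CellTiter-Fluor fluorescence after a 16 hr incubation at 37C in a CO2-free atmosphere.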

For assay [16], the target named is Estrogen receptor (Homo sapiens) (UniProt P03372). The assay can be described thus: qHTS assay to identify small molecule agonists of the estrogen receptor alpha (ER-alpha) signaling pathway in the presence of an antagonist (AID 1259383; calls by dose curve; further: top concentration of the series differs between compounds; nearly all actives have a fitted effect of over 15% in size). The following applies: VM7Luc4E2 cells, ERE-luciferase, +ICI-182,780, 22 h; at 92.4 µM (top of the series) unless noted.
Assay [17] can be described thus: qHTS assay to identify small molecule agonists or antagonists of the thyroid stimulating hormone receptor (TSHR) signaling pathway - wild type cell line counter screen (AID 1259384; calls by dose curve). The following applies: HEK293 wild type, cAMP HTRF counter-screen, hits give high values; at 92.4 µM (top of the series) unless noted. Put shortly: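 Wild-type Hek293 cells, 800/well, 18 h at 37C, then compound with Ro20-1724 for 30 min RT. cAMP by HTRF (cAMP-d2/anti-cAMP cryptate), 1 h RT, fluorescence read. 15 concentrations, triplicates.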

Assay [18] has as its target Thyrotropin receptor (Homo sapiens) (UniProt P16473). The assay can be described thus: qHTS assay to identify small molecule antagonists of the thyroid stimulating hormone receptor (TSHR) signaling pathway (AID 1259385; calls by dose curve; further: nearly all actives have a fitted effect of over 20% in size). The following applies: TSHR-HEK293 cAMP HTRF, TSH-stimulated antagonist mode; at 92.4 µM (top of the series) unless noted.
Assay [19] addresses Androgen receptor (Homo sapiens) (UniProt P10275). The experiment in a line: qHTS assay to identify small molecule antagonists of the androgen receptor (AR) signaling pathway using the MDA cell line in the presence of 0.5 nM R1881 (AID 1259243). Further: nearly all actives have a fitted effect of over 50% in size. Further: potency means the concentration at half of the fitted maximal effect.
For assay [20] the target is unchanged. The experiment in a line: qHTS assay to identify small molecule agonists of the androgen receptor (AR) signaling pathway in the presence of an antagonist (AID 1259381; calls by dose curve; further: nearly all actives have a fitted effect of over 15% in size). Particulars: MDA-kb2 MMTV-luciferase, AR agonist + nilutamide, 16 h; at 92.4 µM (top of the series).
On the % scale 0 is the no-effect control and ±100 the full control effect.

Regarding `CCC(C)(OOC(C)(C)C)OOC(C)(C)C`, the values for the cytotoxicity increase in [1], in assay [2] and in assay [8] were inactive: -23.7% [at 15.8 µM], inactive: 3.44% [at 15.8 µM] and inactive: -22.2% [at 15.8 µM], respectively. In assay [3], the activity change, negative = cytotoxic was inactive: -5.59% [at 15.8 µM]. In addition, the activity change, negative = cytotoxicity in assay [4] was inactive: 10.6% [at 15.8 µM]; in [5], inactive: 2.17% [at 15.8 µM]; in assay [7] it was inactive: -14.7% [at 15.8 µM]; in [15], inactive: 1.64% [at 19 µM]. Moreover, the activity change in [6] was inactive: -2.03% [at 15.8 µM, hits give high values]; in assay [12] it was inactive: -0.975% [at 18.9 µM]. Moreover, the activity change, negative = inhibition was inactive: -0.863% [at 19 µM] in [9], inactive: -0.224% [at 19 µM] in [10] and inactive: 0.826% [at 19 µM] in [18]. Further, the viability change, negative = cytotoxic in assay [11] was inactive: -5.83% [at 19 µM]. Also, the figures for the activation in [13] and in [16] were inactive: 0.386% [at 19 µM] and inactive: 1.7% [at 19 µM], respectively. Moreover, the activity, negative = inhibition in [14] (at 19 µM (top of the series)) is inactive: -4.61%. The cAMP activity change in assay [17] was inactive: 3.01% [at 18.9 µM].

As to `CCCCC(CC)CO[P+](=O)OCC(CC)CCCC` (centres undefined), the Potency entry in assay [1], in assay [2], in assay [3], in assay [4], in assay [5] and in [6] was “inactive” each time. In addition, the Potency entry in assay [8], in assay [11] and in assay [15] was “inactive” throughout. Further, the activity change, negative = cytotoxicity in assay [7] is inactive: -0.117%. The values for the activity change, negative = inhibition in assay [9], in [10] and in assay [18] were inactive: 8.12%, inactive: 8.09% and inactive: -0.587%, respectively. For the same molecule, the activity change in assay [12] was inactive: -1.64%. Moreover, the results for the activation in [13] and in [16] were inactive: 0.28% and inactive: -0.862%, respectively. The activity, negative = inhibition in assay [14] (at 92.4 µM (top of the series)) was inactive: -7.28%. Also, the cAMP activity change in [17] is inactive: -4.07%.

In the case of `CN(C(=O)Cc1cccc2occc12)[C@H]1CC[C@@]2(CCCO2)C[C@@H]1N1CCCC1`, the Potency result in assay [1], in [2], in [3], in assay [4], in [5] and in [6] was “inactive” each time. Moreover, the Potency result in assay [8], in [11] and in [15] was “inactive” in each case. In assay [7], the activity change, negative = cytotoxicity is inactive: 2.51%. The activity change, negative = inhibition in [9] is inactive: -10.7%; in assay [10], inactive: -2.16%; in assay [18], inactive: 1.45%. Moreover, the activity change in assay [12] was inactive: 0.153%. Besides, the activation in assay [13] was inactive: 1.54%; in [16], inactive: -1.53%. Moreover, the activity, negative = inhibition in assay [14] (at 92.4 µM (top of the series)) is inactive: 2.54%. For the same molecule, the cAMP activity change in [17] is inactive: 3.79%.

With `O=[P+](Oc1ccccc1)Oc1ccccc1`, the Potency entry in assay [1], in [2], in assay [3], in assay [4], in assay [5] and in assay [6] was “inactive” each time. Also, the Potency result in [8], in assay [19], in assay [11] and in [15] was “inactive” each time. In [7], the activity change, negative = cytotoxicity was inactive: 1.82%. Besides, the activity change, negative = inhibition in assay [9] was inactive: 5.13%; in assay [10] it was inactive: 3.89%; in assay [18], inactive: 0.692%. In addition, the activity change in assay [12] was inactive: -0.872%. The activation in assay [20] is inactive: 0.0204%; in assay [16] it was inactive: 0.819%. Also, in assay [17], the cAMP activity change is inactive: 2.36%.

Regarding `O=[As]c1ccccc1` (centres undefined), the Potency entry in assay [2] and in assay [6] was “inactive” each time. The Potency was active: 3.09 µM in [5], active: 3.09 µM in assay [8], active: 344 nM in assay [19] and active: 172 nM in [11]. Besides, the activity change, negative = cytotoxicity in [7] was inactive: 4.37%. Besides, the activity change, negative = inhibition in assay [9] was inactive: -109%. For the same molecule, the activity change in assay [12] is inactive: -11.8%. Moreover, the activation was inactive: -11.2% in assay [20] and inactive: -15.4% in assay [16]. The cAMP activity change in assay [17] is inactive: -2.49%.

`O=[N+]([O-])c1ccc(S(=O)(=O)O)c([N+](=O)[O-])c1`: the Potency entry in [1], in assay [2], in assay [3], in [4], in assay [5] and in assay [6] was “inactive” in each case. Further, the Potency result in [8] and in assay [15] was “inactive” throughout. In addition, in [7], the activity change, negative = cytotoxicity was inactive: 0.852%. The figures for the activity change, negative = inhibition in assay [10] and in [18] were inactive: -2.5% and inactive: 4.96%, respectively. In addition, the activity change in assay [12] was inactive: -2.17%. For the same molecule, the cAMP activity change in assay [17] was inactive: 3.18%.

On to `COP(=S)(Cl)OC`, for which the Potency entry in assay [2], in [3], in [4], in assay [5], in assay [6] and in [8] was “inactive” each time. The Potency result in [11] and in [15] was “inactive” each time. In addition, the activity change, negative = cytotoxicity in assay [7] is inactive: -13.5%. Also, the activity change, negative = inhibition is inactive: -13.6% in assay [9], inactive: -0.151% in [10] and inactive: 0.545% in [18]. Besides, the activity change in [12] was inactive: 1.27%. Moreover, the results for the activation in [13] and in [16] were inactive: -0.0232% and inactive: -1.64%, respectively. The activity, negative = inhibition in assay [14] (at 92.4 µM (top of the series)) was inactive: 11.4%. Besides, in assay [17], the cAMP activity change is inactive: 3.61%.
